Earlier results as cited in patent US7172876B2, “Method of screening therapeutic agents for nerve degeneration associated diseases” (Takeda Pharmaceutical Company Limited, priority 2002, dated 2007).

Biological target: T1, FPRL1 (Homo sapiens, UniProt P25090)
T1 sequence (P25090 1-351): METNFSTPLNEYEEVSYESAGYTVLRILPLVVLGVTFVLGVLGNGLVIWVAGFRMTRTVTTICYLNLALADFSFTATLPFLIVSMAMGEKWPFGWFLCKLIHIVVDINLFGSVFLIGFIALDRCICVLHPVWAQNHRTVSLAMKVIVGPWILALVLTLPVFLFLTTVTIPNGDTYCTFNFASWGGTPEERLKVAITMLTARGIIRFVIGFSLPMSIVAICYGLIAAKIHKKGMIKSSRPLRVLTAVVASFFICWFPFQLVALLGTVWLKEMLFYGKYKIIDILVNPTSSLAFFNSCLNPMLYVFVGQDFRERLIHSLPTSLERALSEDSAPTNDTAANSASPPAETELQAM
Settings: reported in the literature; cited from earlier work

Substance: formyl-Met-Leu-Phe [fMLF]
- agonist of FPRL1: Agonists
